Here are results for three compounds from ChEMBL document CHEMBL2040753, “Development of potent and selective inhibitors of aldo-keto reductase 1C3 (type 5 17β-hydroxysteroid dehydrogenase) based on N-phenyl-aminobenzoates and their structure-activity relationships” (J Med Chem, 2012).

SMILES strings stand for the structures.

The test concerns the target T1, Aldo-keto reductase family 1 member C1 (Homo sapiens, UniProt Q04828).
T1 sequence (Q04828 whole entry): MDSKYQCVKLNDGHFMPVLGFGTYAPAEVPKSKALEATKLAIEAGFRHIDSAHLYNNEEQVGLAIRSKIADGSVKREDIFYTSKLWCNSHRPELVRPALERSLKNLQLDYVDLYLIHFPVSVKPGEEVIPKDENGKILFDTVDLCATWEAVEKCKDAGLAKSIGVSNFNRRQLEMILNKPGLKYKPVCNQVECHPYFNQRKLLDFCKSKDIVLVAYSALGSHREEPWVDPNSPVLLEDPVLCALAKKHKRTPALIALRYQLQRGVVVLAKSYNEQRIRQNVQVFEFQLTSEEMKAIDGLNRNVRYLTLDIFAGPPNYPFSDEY
The test is described as follows: Inhibition of recombinant AKR1C1 assessed as NADP+ dependent oxidation of S-tetralol by fluorescence assay.
`O=C(O)c1cccc(Nc2ccc(Cl)cc2)c1`: the IC50 turned out to be 30.2 µM.
In the case of `CC(C)(C)c1ccc(Nc2cccc(C(=O)O)c2)cc1`, the IC50 worked out at 35.6 µM.
Under `CC(=O)c1ccc(Nc2cccc(C(=O)O)c2)cc1` stands 15.6 µM.
